Compound activity from PubChem.
GIV Gai3 FP = blocks GIV peptide binding to rat Galpha-i3. P08753. Galpha-i3/FITC-GIV peptide fluorescence polarization, 90 min; stronger effect = lower value; scaled: aluminum fluoride 0%, vehicle 100%. percent of control (FP), % (test concentration not listed). 0.42% of 210,000 active. AID 1224905;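 active = replicate mean at 85% of control or lower, very high polarization wells dropped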;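 also: wells of about 15 µL received 100 nL stock; the first replicate is given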
HCMV NEC inh = inhibitors of HCMV UL50-UL53 interaction, biochemical, HTRF. HCMV UL50-UL53 nuclear egress complex (human cytomegalovirus). normalized percent inhibition. inhibition, % (concentration not given with the values). 0.15% of 190,000 active; in the data active = inhibition above about 27%, passing the limit was not always enough
GIV-Gai FP conf = inhibitors of GIV peptide binding to Galpha-i3, confirmation, biochemical, fluorescence polarization, FITC-GIV peptide, rat Galphai3. active compounds read low. shares compounds with GIV Gai3 FP. 38% of 580 active. fluorescence polarization, mP at 100 µM;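 active = inhibition score of 15 or more, meaning 100 minus mean polarization as percent of control over three replicates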;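 note: lower mP means peptide displaced from Galphai3 so more inhibition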
GIV Gai AS conf = inhibitors of GIV binding to Galpha-i3, confirmation, orthogonal assay for GIV-Galpha-i inhibitor project, biochemical, AlphaScreen, His-GIV, GST-Galphai3; AID 1259351, 2017; 39% of 580 active; AlphaScreen counts at 100 µM; purified proteins, 90 min; active compounds read low; shares compounds with GIV Gai3 FP;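 active = inhibition score at or above a set limit, where the score is 100 minus the three-replicate mean percent of control signal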
An asterisk follows results filed as active; nt = no result. An excerpt weighted towards active compounds, which were near 0.46% of everything screened.

(1) CC(C)(C)C(=O)Nc1cc(C(F)(F)F)ccc1-n1ccnc1
(2) CN1CCN(CC(O)COCCC23CC4CC(CC(C4)C2)C3)CC1 (stereo not given)
(3) CO[C@@]1(NC(=O)Cc2cccs2)C(=O)N2C(C(=O)O)=C(COC(N)=O)CS[C@@H]21
(4) CC1=CC(=C2N=C(c3ccccc3)OC2=O)C=C(C)O1
(5) O=C1OC(c2ccccc2)=N/C1=C1/OC(=O)c2ccccc21
(6) Cc1ccc(OCc2ccc(C(=O)N(C)C3CCCCC3)o2)cc1C
(7) CCN(Cc1ccccc1)C(=O)c1cc2c(=O)[nH]c3ccc(C)cc3c2s1
(8) CN(Cc1ccccc1)C(=O)c1cc2c(=O)[nH]c3ccccc3c2s1
compound no.	1	2	3	4	5	6	7	8
GIV Gai3 FP	nt	nt	nt	73*	nt	nt	103	87
HCMV NEC inh	-35	-4	-2	-16	-20	-21	-13	0
GIV-Gai FP conf	nt	nt	nt	72	nt	nt	nt	68
GIV Gai AS conf	nt	nt	nt	40445	nt	nt	nt	48153

(9) COc1ccc(C2CC(=O)C3=C(C2)NC(C)=C(C(=O)OC(C)C)C3c2cc3c(cc2Br)OCO3)cc1 (stereo not given)
(10) CN(Cc1nc(-c2cccnc2)no1)C(=O)c1nc2ccccc2s1
(11) Cc1ccc(C2C=C(c3ccccc3)Nc3nc(NS(=O)(=O)c4ccc(C)cc4)nn32)cc1 (stereo not given)
(12) CS(=O)(=O)Nc1nc2n(n1)C(c1ccccc1)C=C(c1ccccc1)N2 (stereo not given)
(13) CCOc1ccc(NS(=O)(=O)c2ccc3[nH]c4c(c3c2)CCCC4)cc1
(14) Cc1sc2nc(-c3cccs3)oc(=O)c2c1C
(15) Cc1sc2nc(/C=C/c3ccco3)oc(=O)c2c1C
(16) O=C(c1cccn1-c1nnc(N2CCCCC2)s1)N1CCN(c2ccccc2)CC1
compound no.	9	10	11	12	13	14	15	16
GIV Gai3 FP	104	nt	100	53*	102	nt	79*	99
HCMV NEC inh	-6	5	nt	nt	nt	0	-9	nt
GIV-Gai FP conf	nt	nt	nt	44*	nt	nt	60	nt
GIV Gai AS conf	nt	nt	nt	28094	nt	nt	46890	nt

(17) Cc1nc(N=Nc2cc(S(=O)(=O)O)c3cc([N+](=O)[O-])cc(S(=O)(=O)O)c3c2)c(COP(=O)(O)O)c(C=O)c1O
(18) CNC(=O)N1Cc2c(C)nn(-c3ccccc3)c2-n2cccc2C1c1cccc(C)c1 (stereo not given)
(19) COC(=O)c1ccccc1Sc1c(-c2ccccc2)nc2ncccn12
(20) CCN(CC)C(=O)Cn1cc(/C=C2/C(=O)N(C)c3ccccc32)c2ccccc21
(21) CCc1cccc2c(/C=C3/C(=O)N(C)c4ccccc43)cn(CC(=O)NC3CCCC3)c12
(22) Cc1nn(-c2ccc(Cl)cc2)c2sc(C(=O)NC3CCCc4ccccc43)cc12 (stereo not given)
(23) Cc1nn(-c2ccccc2)c2sc(C(=O)NC(=S)NC3CCSC3=O)cc12 (stereo not given)
(24) O=C(CSc1sc(=S)sc1SCC(=O)c1ccc(Cl)cc1)c1ccc(Cl)cc1
compound no.	17	18	19	20	21	22	23	24
GIV Gai3 FP	17*	103	nt	104	80*	102	85*	106
HCMV NEC inh	34	-10	-1	nt	nt	nt	nt	nt
GIV-Gai FP conf	53*	nt	nt	nt	34*	nt	64	nt
GIV Gai AS conf	3265*	nt	nt	nt	42825	nt	15795*	nt

(25) COC(=O)c1cnn(-c2c(Cl)cccc2Cl)c1C=C(C#N)C#N
(26) COC(=O)c1cc(-c2cocc2C=C(C#N)C#N)ccc1Cl
(27) Cc1nc(CCNC(=O)[C@H]2CCCN2S(=O)(=O)c2cccc3nsnc23)cs1
(28) COc1ccc(N2C(=O)c3c(C)nc4ccccc4c3C2=O)cc1OC
(29) COc1ccc(N2C(=O)c3c(C)nc4ccccc4c3C2=O)cn1
(30) CN(C(=O)Cn1c(=O)n(CCCS(=O)(=O)C2CCCCC2)c(=O)c2ccccc21)c1ccccc1
(31) CN1C=NS(=O)(=O)c2ccccc21
(32) CC(C)(C)OC(=O)N1CCC(C(=O)Nc2nnc(-c3ccc(Cl)cc3)o2)CC1
compound no.	25	26	27	28	29	30	31	32
GIV Gai3 FP	97	52*	105	103	84*	103	101	nt
HCMV NEC inh	4	-9	nt	-29	-38	-12	8	-18
GIV-Gai FP conf	nt	75	nt	nt	55	nt	nt	nt
GIV Gai AS conf	nt	27781	nt	nt	42415	nt	nt	nt

(33) CCOc1cc(CNc2ccc(O)cc2)ccc1OCc1ccc(Cl)cc1
(34) Oc1ccc(NCc2ccccc2OCc2ccc(Cl)cc2)cc1
(35) Nc1ccc2c(c1)CCC2=O
(36) O=C1CC(=O)c2ccc3c4c(ccc1c24)C(=O)CC3=O
(37) Cc1noc(-c2c(C)sc(C)c2S(=O)(=O)N2CC=C(c3ccccc3)CC2)c1C
(38) O=C1/C(=C\c2cccnc2)SC(=S)N1C1CCS(=O)(=O)C1 (stereo not given)
(39) O=C1/C(=C/c2cn(-c3ccccc3)nc2-c2cccs2)SC(=S)N1C1CCS(=O)(=O)C1 (stereo not given)
(40) Cc1[nH][nH]c(=O)c1C=Nc1ccc(O)c(C(=O)O)c1
compound no.	33	34	35	36	37	38	39	40
GIV Gai3 FP	76*	104	144	74*	103	89	94	88
HCMV NEC inh	14	26	-21	-46	-22	-32	-18	4
GIV-Gai FP conf	61*	nt	nt	53*	nt	73	nt	63
GIV Gai AS conf	10130*	nt	nt	2272*	nt	36761	nt	6341*

(41) Cc1cc(C=Nc2ccc(O)c(C(=O)O)c2)c(C)n1-c1ccc(N(C)C)cc1
(42) CCCCn1c(CN2CCCCC2)nc2cc(NC(=O)C3CCCCC3)ccc21
(43) Cc1ccc(C=Nc2cccc3nsnc23)c(O)c1
(44) Oc1ccc(Cl)cc1C=Nc1cccc2nsnc12
(45) c1ccc(C2Sc3ccccc3N=C3c4ccccc4SCC32)cc1 (stereo not given)
(46) CC(=O)NCCNc1nc2c(S(=O)(=O)c3ccc(C)c(C)c3)nnn2c2ccc(Cl)cc12
(47) CNC(=O)c1ccccc1NC(=O)C1=CSCCO1
(48) O=S(=O)(c1cc(-c2nnc(C3CC3)o2)co1)N1CCN(c2ccccc2)CC1
compound no.	41	42	43	44	45	46	47	48
GIV Gai3 FP	nt	100	101	74*	102	103	102	101
HCMV NEC inh	-12	4	-33	26	-6	-24	-22	nt
GIV-Gai FP conf	nt	nt	nt	58*	nt	nt	nt	nt
GIV Gai AS conf	nt	nt	nt	6922*	nt	nt	nt	nt

(49) O=C1OC(c2ccc(Cl)c([N+](=O)[O-])c2)=N/C1=C\c1cc(Br)cs1
(50) CC(=O)Nc1ccc(C2=N/C(=C/c3cc(Br)cs3)C(=O)O2)cc1
(51) CC1CC(CCC(=O)NC(=S)Nc2ccc(S(N)(=O)=O)cc2)C(=O)O1 (stereo not given)
(52) O=C1c2ccccc2-c2n[nH]c(=S)nc21
(53) O=C1c2ccccc2-c2nc3nonc3nc21
(54) CC1C/C(=C/c2ccncc2)C(=O)/C(=C/c2ccncc2)C1 (stereo not given)
(55) O=C1/C(=C/c2ccncc2)CC/C1=C\c1ccncc1
(56) CCOc1ccc2nc(SCc3cc(=O)oc4cc(O)ccc34)[nH]c2c1
compound no.	49	50	51	52	53	54	55	56
GIV Gai3 FP	110	93	106	97	49*	68*	nt	nt
HCMV NEC inh	nt	-13	-26	-170	36	nt	-34	-44
GIV-Gai FP conf	nt	68	nt	nt	44*	44*	nt	nt
GIV Gai AS conf	nt	42375	nt	nt	17911*	8734*	nt	nt

Four entries picked at random from those above:
(50) CC(=O)Nc1ccc(C2=N/C(=C/c3cc(Br)cs3)C(=O)O2)cc1
(52) O=C1c2ccccc2-c2n[nH]c(=S)nc21
(55) O=C1/C(=C/c2ccncc2)CC/C1=C\c1ccncc1
(53) O=C1c2ccccc2-c2nc3nonc3nc21
compound no.	50	52	55	53
GIV Gai3 FP	93	97	nt	49*
HCMV NEC inh	-13	-170	-34	36
GIV-Gai FP conf	68	nt	nt	44*
GIV Gai AS conf	42375	nt	nt	17911*

Next section.
(57) CCOC(=O)c1ccc(Nc2nc3ccccc3n3cnnc23)cc1
(58) Cc1ccc(C(=O)O)cc1Nc1nc2ccccc2n2cnnc12
(59) C=CCN1C(=O)/C(=C2/Sc3ccccc3N2CC)SC1=S
(60) C=CCN1C(=O)/C(=C2/Sc3ccc(Cl)cc3N2CC)SC1=S
(61) O=C(Cn1cc(/C=c2/sc3nc4ccccc4n3c2=O)c2ccccc21)N1CCCC1
compound no.	57	58	59	60	61
GIV Gai3 FP	103	76*	77*	111	80*
HCMV NEC inh	0	-3	nt	nt	-27
GIV-Gai FP conf	nt	43*	72	nt	78
GIV Gai AS conf	nt	18787*	3469*	nt	43306
